Measured values from US10677782B2, “Methods of determining interferon having direct inhibitory effects on tumors and uses thereof” (SUPERLAB FAR EAST LIMITED, priority 2013, dated 2020).

Experiments:
[1] = tested on: beta-catenin protein level in SW480 cells; assay: Beta-catenin protein level by Western Blot; format: cell-based, human; settings: 10 mcg/ml, 24 hr, 48 hr, or 72 hr
Experimental: (§1) Cancer cells, A549 and Sw480, were cultured to about 85% confluency and put into 6 well plates. The cells were treated with either 10 mcg/ml IFNα-2b or rSIFN-co or left untreated as control (Mock) for 24 hr, 48 hr, or 72 hr, respectively. After treatment, the cells were harvested for Western Blot to detect the beta-catenin protein level, using its specific antibody, with GAPDH as endogenous loading control. The experiment was conducted in triplicate.
(§2) To determine the expression of various proteins, cells were harvested from the plates and total cellular protein were extracted using extraction reagents (Cat #: P0013) according to the manufacturer's protocol (Beyotime, China). The total protein concentration was determined by the Lowry Protein Assay kit (Bio-Rad, USA). Total proteins were separated by sodium dodecylsulfate-polyacrylamide gel electrophoresis (SDS-PAGE) on 10%-12% gel and transferred to 0.22 or 0.45 μm PVDF membranes (Millipore Corporation, Billerica, Mass., USA). The membranes were blocked with 5% skimmed milk, bovine serum albumin, 10 mmol/L Tris-HCl at pH 8.0, 150 mmol/L NaCl, and 0.05% Tween 20 overnight at 4° C. […] Blots were visualized using Luminescence/Fluorescence Imaging LAS4000 System (GE Healthcare Life Sciences, USA) with super signal west pico chemiluminescent substrate kit (Thermo scientific, USA). […]

[2] = tested on: beta-catenin protein level in A549 cells; assay: Beta-catenin protein level by Western Blot; format: cell-based, human; settings: 10 mcg/ml, 24 hr, 48 hr, or 72 hr
Experimental: as §1, §2

[3] = tested on: SW620 tumor cells; assay: Cell viability over 1-6 days, MTT assay; format: cell-based, human; settings: 10 μg/ml
Experimental: The cell survival rate was evaluated in a standard MTT assay (3-(4,5-dimethylthiazol-2-yl)-2,5-diphenyltetrazolium bromide assay, Sigma, St. Louis, Mo.). For the assay, about 20 μl MTT (at […]) was added to each well. The cells were incubated at 37° C. for 4 hr. After that, the supernatant of each well was drawn off carefully and then an equal volume (150 microliter) of dimethyl sulfoxide (DMSO) was added to each well and mixed thoroughly on a shaker for 15 min. The absorbance from the plates was read at 595 nm with a Thermo Scientific Microplate Reader (Thermo Fisher Scientific Inc., Lowell, Mass.). The relative cell viability was calculated as follows: Cell viability=(Treated group(OD595) minus blank(OD595))/(Control group(OD595) minus blank(OD595))×100%.

[4] = tested on: A549 cells xenograft tumors; assay: A549 xenograft tumor growth in nude mice (Example 6B); format: in vivo, human; settings: 100 μg/100 μl per mouse intratumorally every other day, 12 times; vs PBS; 27 days
Experimental: This experiment was conducted in accordance to the National Institutes of Health Guide for the Care and Use of Laboratory Animals. Female BALB/c nude mice, 4-5 weeks old, were obtained from Shanghai Experimental Animal Center (Shanghai, China). About 5×10^6 A549 cells were subcutaneously injected into each mouse to establish xenograft tumors. The animals were divided into three (3) groups at random (8 mice per group), and treated with PBS (1×PBS, pH 7.2-7.4), rSIFN-co at 100 μg/100 μl per mouse or with IFNα-2b, also at 100 μg/100 μl per mouse, intratumorally, every other day, for 12 times. The tumors were measured every three (3) days and the tumor volumes were calculated as follows: tumor volume (mm^3)=(length×width^2)/2. Data are shown as Mean±SD (n=8).

[5] = tested on: procaspase-3, cleaved caspase-3, procaspase-8, cleaved caspase-8, PARP in A549 cells; assay: Apoptosis-related molecular markers by Western Blot; format: cell-based, human; settings: 24 hr or 48 hr; interferons at 10 mcg/ml
Source text: (§3) Thereafter, apoptosis-related molecular markers were monitored by Western Blot. The primary antibodies used were mouse monoclonal anti-beta-tubulin (1:2000, Cat #: CW0098A) and mouse monoclonal anti-GAPDH (1:2000, Cat #: CW0100A) (Kangwei Biotechnology, China); mouse monoclonal anti-PARP (1:1000, Cat #: se-2007, Santa Cruz Biotechnology, Inc.); rabbit monoclonal anti-procaspase 3 (1:1000, Cat #: 9665), and rabbit polyclonal anti-cleaved caspase 3 (1:1000, Cat #: 9661) (Cell Signaling Technology, USA); goat polyclonal anti-procaspase 8 (1:1000, Cat #: sc-6136, Santa Cruz Biotechnology, Inc); rabbit monoclonal anti-cleaved caspase 8 (1:1000, Cat #: 9496) (Cell Signaling Technology, USA).

[6] = tested on: procaspase-3, cleaved caspase-3, procaspase-8, cleaved caspase-8, PARP in SW620 cells; assay: as above; format: cell-based, human; settings: 24 hr or 48 hr; interferons at 10 mcg/ml
Source text: as §3

[7] = tested on: lung cancer A549 cells; assay: Cell migration assay across microporous membranes; format: cell-based, human; settings: 10 μg/ml, 24 hr treatment; untreated Mock about 30
Experimental: (§4) The cell migration assay was performed using 8 μm cell culture inserts in 24-well plates (Becton-Dickinson Biosciences, NJ, USA). Warm (37° C.) bicarbonate based culture medium without FBS was added to the interior of the inserts and to the bottoms of the wells, and were allowed to rehydrate for 2 hr in humidified tissue culture incubator at 37° C. in 5% CO2. After rehydration, the culture medium was carefully removed. […] In the lower compartment of the 24-well plates were placed 500 μl of complete medium with 10% FBS. After 24 hr at 37° C. under the regular culture conditions, the non-migrated cells in the upper part of the chamber membranes were removed with a cotton swab. The lower part of the culture inserts were fixed with 4% paraformaldehyde and stained with 2% crystal violet. The number of migrated cells on the opposite side of the chamber membranes from where the cells were placed was counted in each of the triplicate wells. Each experiment was repeated at least two times, each time with triplicate wells.

[8] = tested on: colon cancer SW620 cells; assay: Cell migration assay across microporous membranes; format: cell-based, human; settings: 10 μg/ml, 24 hr treatment; vs Mock
Experimental: as §4

[9] = tested on: Lung cancer cells, A549; assay: Colony formation and pseudopod formation in 3D Matrigel culture; format: cell-based, human; settings: 10 mcg/ml, after 8 days
Experimental: Matrigel (from BD Corporation, Cat #: 356234) was thawed on ice in a 4° C. refrigerator overnight, and a 24-well plate was frozen at −20° C. overnight. Thereafter, each well of the frozen 24-well plate was coated with 150 μl of the Matrigel at 1.0 mcg/ml. The Matrigel coated plate was then incubated 37° C. for 20-30 min. Lung cancer cells, A549, were trypsinized and counted. […] The cells were incubated at 37° C. for at least about 8 days. About 200 μl of the above conditioned medium was added every 3 days to prevent the medium from drying. On the 4th or 8th day, photographs were taken to observe the size of the colonies and invasive feet (pseudopod) formation. The experiment was conducted in triplicate.

[10] = tested on: Human Colon Cancer HT-29 Xenografts; assay: Human colon cancer HT-29 xenografts in nude mice (Example 3); format: in vivo; settings: 0.15 mg/mouse i.t. every other day
Experimental: (§5) Before commencement of this study, the xenografts were passaged twice in nude mice. Under sterile conditions, well-grown tumors were cut into 1.5 mm^3 fragments and one such fragment was injected by trocar needle into the right flank of each study animal. […] Individual tumor size (length and width) was measured twice per week with microcalipers. Tumor volume (V) was calculated using the formula: V=(length×width^2)/2. Individual relative tumor volume (RTV) was calculated using the formula: RTV=Vt/V0, where Vt is the tumor volume on the day of measurement and V0 is the tumor volume on the day of first treatment. Therapeutic effect of the test article or control article was expressed in terms of TIC (%), using the formula: TIC (%) (mean RTV of the treated group/mean RTV of the control group)×100%; and in terms of % Inhibition, using the formula: % Inhibition=100%−T/C %.
Then, 1.5 mm^3 fragments were prepared for s.c. implantation into the test animals.

[11] = tested on: human lung cancer SPC-A4 xenografts; assay: Human lung cancer SPC-A4 xenografts in nude mice (Example 4); format: in vivo
Experimental: as §5
The 1.5 mm^3 fragments were then used for s.c. implantation into the test animals.

[12] = tested on: PANC-1 cells; assay: Cell viability, Am-Blue assay, 48 hr; format: cell-based, human; settings: 100 mcg/ml (μg/ml)
Experimental: (§6) Cell culture and reagents human lung cancer cell lines (A549, H1299, H460, Calu-1), human liver cancer cell lines (SMMC-7721, Huh-7, CL-1), human cervical carcinoma cell line (Hela), human breast cancer cell line (MDA-MB-231), human pancreatic cancer cell line (PANC-1) and human colon cancer cell lines (SW620, HT29, SW480) were purchased from the Shanghai Cell Collection (Shanghai, China). The above cell lines were cultured in 5% CO2 at 37° C. in corresponding complete growth medium formulated by the Shanghai Cell Collection, with 10% heat-inactivated fetal bovine serum (Biochrom, Germany), supplemented with 4 mM glutamine, 50 U/ml penicillin and […] streptomycin.
(§7) About 5×10^3 cells in 100 μl complete medium per well were plated in 96-well plates, incubated overnight, and then treated with IFN α-2b or rSIFN-co at concentrations of 100 μg/ml, 50 μg/ml, 25 μg/ml, 12.5 μg/ml, 6.25 μg/ml, 3.13 μg/ml, 1.56 μg/ml, 0.78 μg/ml, 0.39 μg/ml, and 0.20 μg/ml, respectively, for about 48 hr, at which time the cells were harvested for analysis. The cell viability rate was evaluated by SunBio Am-Blue assay kit (Cat #: SBAB8025, Shanghai SBO Medical Biotechnology Co., Ltd, Shanghai, China). According to its protocol, 10 μl Am-Blue was added to each well. Then the cells were incubated in 5% CO2 at 37° C. for 4 hours. After shaking the plates for 30 seconds, the absorbance for each well was read at both 570 nm and 595 nm by a Thermo Scientific Microplate Reader (Thermon Fisher Scientific, Inc., Lowell, Mass.), The relative cell viability was calculated as follows: Cell viability=(Treated Group(OD570-OD595) minus Blank(OD570-OD595))/(Control group(OD570-OD595) minus Blank(OD570-OD595))×100%, where the Control group was the corresponding untreated cells. Results are shown in FIG. 5, in which viability of the tumor cells was expressed as a percentage relative to control cells that were not treated. Each data point represented the mean of at least two independent experiments.

[13] = tested on: CL-1 cells; assay: Cell viability, Am-Blue assay, 48 hr; format: cell-based, human; settings: 100 μg/ml
Experimental: as §6, §7

[14] = tested on: MDA-MB-231 cells; assay: Cell viability, Am-Blue assay, 48 hr; format: cell-based, human; settings: 100 mcg/ml (μg/ml)
Experimental: as §6, §7

[15] = tested on: SMMC-7721 cells; assay: Cell viability, Am-Blue assay, 48 hr; format: cell-based, human; settings: 100 μg/ml
Experimental: as §6, §7

[16] = tested on: A549 cells; assay: Cell viability, Am-Blue assay, 48 hr; format: cell-based, human; settings: 100 μg/ml
Experimental: as §6, §7

[17] = tested on: Huh-7 cells; assay: Cell viability, Am-Blue assay, 48 hr; format: cell-based, human; settings: 100 mcg/ml (μg/ml)
Experimental: as §6, §7

[18] = tested on: Hela cells; assay: Cell viability, Am-Blue assay, 48 hr; format: cell-based, human; settings: 100 μg/ml
Experimental: as §6, §7

[19] = tested on: Calu-1 cells; assay: Cell viability, Am-Blue assay, 48 hr; format: cell-based, human; settings: 100 mcg/ml (μg/ml)
Experimental: as §6, §7

[20] = tested on: SW480 cells; assay: Cell viability, Am-Blue assay, 48 hr; format: cell-based, human; settings: 100 μg/ml
Experimental: as §6, §7

[21] = 0.15 mg/mouse i.t. every other day, day 21

IFN alpha-2b: Interferon alpha-2b comparator, from Shanghai Hua-xin High Biotechnology / Huiyang Life Science and Technology Corp.
beta-catenin protein level [1]: did not cause any apparent decrease
beta-catenin protein level [2]: did not cause any apparent decrease
cell viability, time dependent effect [3]: little time-dependent effect, if any
inhibition of tumor growth (tumor volume) [4]: did not exhibit remarkable suppression of tumor growth
level of apoptosis-related molecular markers (procaspase-3, procaspase-8, PARP, cleaved caspase-3, cleaved caspase-8) [5]: neither of the interferons, IFN alpha-2b nor rSIFN-co, caused any reduction in the level of procaspase-3 or procaspase-8 or PARP, or induced any enhancement in the level of cleaved caspase-3 or cleaved caspase-8
level of apoptosis-related molecular markers (procaspase-3, procaspase-8, PARP, cleaved caspase-3, cleaved caspase-8) [6]: neither of the interferons, IFN alpha-2b nor rSIFN-co, caused any reduction in the level of procaspase-3 or procaspase-8 or PARP, or induced any enhancement in the level of cleaved caspase-3 or cleaved caspase-8
mean number of migrating cells per field [7]: about 110 cells per field
tumor cell migration [8]: enhancement of tumor cell migration
invasive feet (pseudopod) formation [9]: pseudopod formation was obvious
TV (mm^3, mean ± SD) (D0) ([10]; day 0, start of treatment): 128 ± 44 mm^3
% Inhibition ([10]; day 28): 25.56%
RTV (mean ± SD) ([10]; day 28): 6.26±1.43
T/C (%) ([10]; day 28): 74.44%
TV (mm^3, mean ± SD) (D28) ([10]; day 28): 831 ± 420 mm^3
RTV (mean ± SD) ([10]; day 28, listed as IFNalpha-2b): 6.26 ± 1.43
TV (mm^3, mean ± SD) (D0) ([11]; 0.15 mg/mouse i.t. every other day, day 0, start of treatment): 191 ± 44 mm^3
% Inhibition [11, 21]: 34.53%
RTV (mean ± SD) [11, 21]: 27.84 ± 15.51
T/C (%) [11, 21]: 65.47%
TV (mm^3, mean ± SD) (D21) [11, 21]: 4908 ± 2433 mm^3
retardation of tumor growth (RTV) seen by ([11]; all doses, study to day 21, FIG. 4): 11 days
reduction in viability [12]: Less than 50%
reduction in viability [13]: no or very little effect
reduction in viability [14]: Less than 50%
reduction in viability [15]: no or very little effect
reduction in viability [16]: no or very little effect
reduction in viability [17]: Less than 50%
reduction in viability [18]: no or very little effect
reduction in viability [19]: Less than 50%
reduction in viability [20]: no or very little effect
